Patent publication USRE38460E1 (priority 1994, dated 2004)
pIC50: −log10 of the molar value.

The chains behind the UniProt entries cited, without tags or fusion partners. Residues count along the entry.
UniProt Q9JKC1, 24-597: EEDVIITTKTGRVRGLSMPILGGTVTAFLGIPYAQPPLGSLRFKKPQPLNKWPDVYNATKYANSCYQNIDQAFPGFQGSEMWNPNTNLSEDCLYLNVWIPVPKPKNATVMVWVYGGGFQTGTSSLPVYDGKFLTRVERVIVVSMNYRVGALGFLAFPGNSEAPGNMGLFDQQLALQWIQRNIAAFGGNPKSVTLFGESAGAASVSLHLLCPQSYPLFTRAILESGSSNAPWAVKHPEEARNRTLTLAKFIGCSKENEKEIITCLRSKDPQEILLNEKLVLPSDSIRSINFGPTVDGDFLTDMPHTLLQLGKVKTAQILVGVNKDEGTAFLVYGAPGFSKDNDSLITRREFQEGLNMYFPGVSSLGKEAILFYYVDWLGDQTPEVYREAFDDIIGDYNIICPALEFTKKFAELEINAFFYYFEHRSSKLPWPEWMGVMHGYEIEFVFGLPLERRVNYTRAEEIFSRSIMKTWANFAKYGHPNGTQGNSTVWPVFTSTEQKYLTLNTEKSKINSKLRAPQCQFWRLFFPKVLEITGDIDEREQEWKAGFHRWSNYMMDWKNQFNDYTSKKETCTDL

Assays:
Type in all cases: biochemical
[1] = target: T1, acetylcholinesterase (AChE) (Rattus norvegicus, UniProt P37136); conditions: Table 2; cortex AChE, serum BuChE
T1 construct: from tissue; host or cells: homogenate of rat cortex
T1 sequence (P37136 32-614): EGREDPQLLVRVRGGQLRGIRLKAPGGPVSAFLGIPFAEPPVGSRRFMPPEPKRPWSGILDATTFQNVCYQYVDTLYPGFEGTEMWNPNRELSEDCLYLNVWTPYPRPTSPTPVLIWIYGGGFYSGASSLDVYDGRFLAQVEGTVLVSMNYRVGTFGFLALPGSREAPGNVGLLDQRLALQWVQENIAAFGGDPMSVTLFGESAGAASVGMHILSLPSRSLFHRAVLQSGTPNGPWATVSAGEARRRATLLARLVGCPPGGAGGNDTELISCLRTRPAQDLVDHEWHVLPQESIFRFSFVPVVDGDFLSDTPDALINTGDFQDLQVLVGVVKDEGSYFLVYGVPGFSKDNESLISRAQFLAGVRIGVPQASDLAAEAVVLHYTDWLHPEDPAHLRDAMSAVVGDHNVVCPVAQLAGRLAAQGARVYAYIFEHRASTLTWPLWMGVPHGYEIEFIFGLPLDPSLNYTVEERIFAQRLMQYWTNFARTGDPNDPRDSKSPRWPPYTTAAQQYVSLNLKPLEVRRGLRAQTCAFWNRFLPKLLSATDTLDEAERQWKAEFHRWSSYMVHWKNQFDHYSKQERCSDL

[2] = target: T2, AChE (Rattus norvegicus, UniProt P37136); conditions: Table 6
T2 construct: 0.1-0.2 ml of enzyme solution (red cell membrane or serum of rat) was added; from tissue; host or cells: rat tissue
T2 sequence (P37136 32-614): T1 sequence (P37136 32-614)

[3] = target: T3, butyrylcholinesterase (BuChE) (Rattus norvegicus, UniProt Q9JKC1); assay: In-vitro anticholinesterase effect, colorimetric method (Ellman), BuChE from rat's serum
T3 construct: from tissue; host or cells: rat serum

Row | SMILES | IC50 ratio BuChE/AChE [1] | BuChE/AChE [2] | pIC50 [3]
1 | CC=C1C2C=C(C)CC1(N=Cc1cc(OC)c(OC)c(OC)c1)c1ccc(=O)[nH]c1C2 (centres unmarked) [derivative No. 21] | 1121.3 | >500 | 
2 | CC=C1C2C=C(C)CC1(N=Cc1cccc(O)c1O)c1ccc(=O)[nH]c1C2 (centres unmarked) [derivative No. 24] | 1585.0 | >100 | 3.80
